In patent US20250277029A1, “CANNABINOID TYPE 1 RECEPTOR BINDING PROTEINS AND USES THEREOF” (AMGEN INC., priority 2022, published 2025) one finds relative binding fold change compared to LIBC523797-1(Fab) data, which are given here for 15 molecules.

Sequences and labels used below:
T1: XCR1-SMALP
T1 sequence (P46094 whole entry, species assumed, looked up): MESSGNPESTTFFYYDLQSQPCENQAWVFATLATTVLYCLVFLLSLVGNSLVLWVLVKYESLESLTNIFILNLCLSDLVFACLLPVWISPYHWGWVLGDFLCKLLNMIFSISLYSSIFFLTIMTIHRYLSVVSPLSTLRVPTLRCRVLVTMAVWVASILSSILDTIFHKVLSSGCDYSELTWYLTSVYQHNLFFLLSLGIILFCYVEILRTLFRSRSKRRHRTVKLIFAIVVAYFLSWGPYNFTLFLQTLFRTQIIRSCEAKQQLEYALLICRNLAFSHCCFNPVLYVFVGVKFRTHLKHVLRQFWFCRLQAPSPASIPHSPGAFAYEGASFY

B1: LIBC529593-1 (Fab) (Fab, V domains shown)
VH: QVQLQESGPGLVKPSQTLSLTCTVSGGSIRRGGDYWSWIRQHPGKGLEWIGHIYYSGSTNYNPSLRSRVRISVDTSKNQFSLKLSSVTAADTAVYYCARDYDILTGYSYYYYGLDVWGQGTTVTVSS
VL: DIVMTQSPLSLPVTPGEPASISCRSSQSLLHRSGYNYLDWYLQKPGQSPQLLIYLGSNRASGVPDRFSGSGSGTDFTLKISRVEAEDVGVYYCMQSLQTPRTFGQGTKVEIKR
B2: LIBC674024-1 (Fab on yeast) (Fab, V domains shown)
VH: QVQLQESGPGLVKPSQTLSLTCTVSGGSIRRGGDYWSWIRQHPGKGLEWIGHVYQTGSTKYNPSFKNRVRISVNTYKNQFSLKLSSVTAADTAVYYCARGYDVSGYSYYYYGLDVWGQGTTVTVSS
VL: B1 VL
B3: LIBC673982-1 (Fab on yeast) (Fab, V domains shown)
VH: B2 VH with V53I, Q55Y, K60T, K66R, N67G, G100D, V103I, L113M
VL: B1 VL with M94R, L97V, Q98A, T99L
B4: LIBC674257-1 (Fab on yeast) (Fab, V domains shown)
VH: B2 VH with V53I, Q55Y, S58Q, F65L, K66R, N67G, V103I
VL: B1 VL
B5: LIBC673948-1 (Fab on yeast) (Fab, V domains shown)
VH: B2 VH with V53I, Q55Y, F65L
VL: B1 VL
B6: LIBC674214-1 (Fab on yeast) (Fab, V domains shown)
VH: B2 VH with Q55Y, T56E, K66R, N67G
VL: B1 VL
B7: LIBC673965-1 (Fab on yeast) (Fab, V domains shown)
VH: B2 VH with Q55Y, S58Q, K60A, F65L, K66R, N67G, V103T
VL: B1 VL
B8: LIBC674043-1 (Fab on yeast) (Fab, V domains shown)
VH: B2 VH with V53I, Q55Y, S58Q, K60T, S64N, N67G, V103A, L113M, S126R
VL: B1 VL
B9: LIBC674216-1 (Fab on yeast) (Fab, V domains shown)
VH: B2 VH with V53I, Q55Y, S58Q, K60A, F65L, K66R, V103I
VL: B1 VL
B10: LIBC674235-1 (Fab on yeast) (Fab, V domains shown)
VH: B2 VH with Q55Y, T56A, K60T, F65L, N67S
VL: B1 VL
B11: LIBC674035-1 (Fab on yeast) (Fab, V domains shown)
VH: B2 VH with V53I, Q55Y, T56A, S58Q, V103I
VL: B1 VL
B12: LIBC674276-1 (Fab on yeast) (Fab, V domains shown)
VH: B2 VH with Q55Y, K60T, S64N, N67G, V103A
VL: B1 VL
B13: LIBC673972-1 (Fab on yeast) (Fab, V domains shown)
VH: B2 VH with V53I, Q55Y, S58Q, K60A, S64N, F65L, K66R, V103A
VL: B1 VL
B14: LIBC674153-1 (Fab on yeast) (Fab, V domains shown)
VH: B2 VH with Q55Y, K60A, K66R, N67G, V103T
VL: B1 VL
B15: LIBC674002-1 (Fab on yeast) (Fab, V domains shown)
VH: B2 VH with V53I, Q55Y, T56K, K60E, F65L, K66R, N67G
VL: B1 VL

Positions count from the first letter of the chain named.

The target in the assay is T1, XCR1-SMALP. The assay is described as follows: flow cytometry, yeast-displayed Fab, 50 nM XCR1 SMALP.
With B1, the relative binding fold change compared to LIBC523797-1(Fab) came to 1.5 fold.

B2: the relative binding fold change compared to LIBC523797-1(Fab) worked out at 0.86 fold. For B3, the relative binding fold change compared to LIBC523797-1(Fab) came to 0.79 fold.

Take B4: the relative binding fold change compared to LIBC523797-1(Fab) was 0.77 fold. The same measure for B5: 0.88 fold; for B6: 0.68 fold. The same measure for B7: 0.74 fold. Turning to B8, the relative binding fold change compared to LIBC523797-1(Fab) is 0.62 fold. The same measure for B9: 0.52 fold; for B10: 0.68 fold; for B11: 0.91 fold. Regarding B12, the relative binding fold change compared to LIBC523797-1(Fab) stood at 0.54 fold. The value for B13 was 0.8 fold; that for B14 was 0.68 fold.

For B15, the relative binding fold change compared to LIBC523797-1(Fab) was determined as 0.91 fold.
